Test results reported in article PMC4963535, “Structure-guided development of heterodimer-selective GPCR ligands” (Nature Communications, 2016).

Protein sequences, listed by entry. Tags and fused reporters are not part of them.
UniProt P30989, whole entry: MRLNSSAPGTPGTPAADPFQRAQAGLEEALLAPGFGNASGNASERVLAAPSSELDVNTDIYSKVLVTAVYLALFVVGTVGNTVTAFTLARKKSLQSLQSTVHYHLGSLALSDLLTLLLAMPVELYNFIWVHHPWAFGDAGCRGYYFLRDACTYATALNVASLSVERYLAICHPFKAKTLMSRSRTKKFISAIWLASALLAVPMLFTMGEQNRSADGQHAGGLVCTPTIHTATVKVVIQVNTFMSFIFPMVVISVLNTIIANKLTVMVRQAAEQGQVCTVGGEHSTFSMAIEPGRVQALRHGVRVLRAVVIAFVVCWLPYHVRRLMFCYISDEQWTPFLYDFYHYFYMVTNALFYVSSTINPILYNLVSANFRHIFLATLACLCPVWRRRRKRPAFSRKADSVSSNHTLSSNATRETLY

Tests used:
[1] = target: neurotensin receptor subtype 1 (NTS1R) (UniProt P30989); test: radioligand binding; KD of [3H]neurotensin on the homogenates from CHO cells stably expressing human NTS1R (Bmax 2500-6200 fmol/mg), given as a parameter of the competition assay
[2] = target: neurotensin receptor subtype 1 (NTS1R) (UniProt P30989); test: radioligand binding; KD of [3H]neurotensin given for the membrane preparation coexpressing D2LR and NTS1R (2.5:1); how it was determined is not told there
[3] = target: neurotensin receptor subtype 1 (NTS1R) (UniProt P30989)
[4] = target: neurotensin receptor subtype 1 (NTS1R) (UniProt P30989); remark: listed apart in the source
[5] = target: neurotensin receptor subtype 1 (NTS1R) (UniProt P30989); remark: listed apart in the source
D2LR (Homo sapiens) = test: D2LR alone; conditions: N-homotyrosine (NhTyr) in place of tyrosine, N-terminus carries a 44-atom polyethylene glycol-based spacer

Question: With [3H]neurotensin (peptide) as the molecule, how does the Kd [1] read?
Answer: 0.37 to 0.69 nM

Question: What about the Kd [2] of the same molecule?
Answer: 0.5 nM

Question: How did the β-arrestin-2 recruitment (PathHunter) in cells coexpressing ProLink-tagged D2R and NTS1R; EC50 [3] turn out when NT(8-13) (peptide) was run?
Answer: 7.5 nM

Question: What about the β-arrestin-2 recruitment (PathHunter) in cells coexpressing ProLink-tagged D2R D80A and NTS1R; EC50 [4] of the same molecule?
Answer: 5.9 nM

Question: What about the cAMP accumulation (BRET biosensor CAMYEL) in HEK 293 T cells expressing only NTS1R, with 10 μM forskolin; EC50 [5] of the same molecule?
Answer: 2.6 nM

Question: RRPYIL [bivalent control compound 3f] was tested. Which Ki (D2LR (Homo sapiens); a biphenyltriazole moiety and an aminoindane-type D2R agonist pharmacophore) did it give?
Answer: 39 nM

Question: With RRPYIL [bivalent control compound 2f] as the molecule, how does the Ki (D2LR (Homo sapiens); a biphenyltriazole moiety and a 2-methoxyphenylpiperazine D2R antagonist pharmacophore) read?
Answer: 40 nM
